The text below walks through data of PubChem BioAssay (NCATS).

The chains behind the UniProt entries cited, without tags or fusion partners. Where a name states a change or a piece, a line headed by the entry shows the natural chain unless it says otherwise.
UniProt P19793: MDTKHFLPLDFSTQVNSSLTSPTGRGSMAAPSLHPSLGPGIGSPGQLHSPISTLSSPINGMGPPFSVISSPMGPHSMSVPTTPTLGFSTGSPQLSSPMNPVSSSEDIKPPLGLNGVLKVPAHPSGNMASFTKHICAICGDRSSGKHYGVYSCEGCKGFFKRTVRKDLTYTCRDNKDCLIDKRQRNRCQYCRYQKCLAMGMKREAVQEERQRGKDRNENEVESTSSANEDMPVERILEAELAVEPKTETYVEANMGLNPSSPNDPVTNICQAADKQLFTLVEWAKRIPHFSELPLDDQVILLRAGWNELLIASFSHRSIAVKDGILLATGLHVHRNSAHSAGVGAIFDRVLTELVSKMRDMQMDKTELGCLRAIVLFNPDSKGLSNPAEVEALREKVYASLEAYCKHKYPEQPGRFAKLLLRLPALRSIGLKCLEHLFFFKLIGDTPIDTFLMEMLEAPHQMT
UniProt Q12809: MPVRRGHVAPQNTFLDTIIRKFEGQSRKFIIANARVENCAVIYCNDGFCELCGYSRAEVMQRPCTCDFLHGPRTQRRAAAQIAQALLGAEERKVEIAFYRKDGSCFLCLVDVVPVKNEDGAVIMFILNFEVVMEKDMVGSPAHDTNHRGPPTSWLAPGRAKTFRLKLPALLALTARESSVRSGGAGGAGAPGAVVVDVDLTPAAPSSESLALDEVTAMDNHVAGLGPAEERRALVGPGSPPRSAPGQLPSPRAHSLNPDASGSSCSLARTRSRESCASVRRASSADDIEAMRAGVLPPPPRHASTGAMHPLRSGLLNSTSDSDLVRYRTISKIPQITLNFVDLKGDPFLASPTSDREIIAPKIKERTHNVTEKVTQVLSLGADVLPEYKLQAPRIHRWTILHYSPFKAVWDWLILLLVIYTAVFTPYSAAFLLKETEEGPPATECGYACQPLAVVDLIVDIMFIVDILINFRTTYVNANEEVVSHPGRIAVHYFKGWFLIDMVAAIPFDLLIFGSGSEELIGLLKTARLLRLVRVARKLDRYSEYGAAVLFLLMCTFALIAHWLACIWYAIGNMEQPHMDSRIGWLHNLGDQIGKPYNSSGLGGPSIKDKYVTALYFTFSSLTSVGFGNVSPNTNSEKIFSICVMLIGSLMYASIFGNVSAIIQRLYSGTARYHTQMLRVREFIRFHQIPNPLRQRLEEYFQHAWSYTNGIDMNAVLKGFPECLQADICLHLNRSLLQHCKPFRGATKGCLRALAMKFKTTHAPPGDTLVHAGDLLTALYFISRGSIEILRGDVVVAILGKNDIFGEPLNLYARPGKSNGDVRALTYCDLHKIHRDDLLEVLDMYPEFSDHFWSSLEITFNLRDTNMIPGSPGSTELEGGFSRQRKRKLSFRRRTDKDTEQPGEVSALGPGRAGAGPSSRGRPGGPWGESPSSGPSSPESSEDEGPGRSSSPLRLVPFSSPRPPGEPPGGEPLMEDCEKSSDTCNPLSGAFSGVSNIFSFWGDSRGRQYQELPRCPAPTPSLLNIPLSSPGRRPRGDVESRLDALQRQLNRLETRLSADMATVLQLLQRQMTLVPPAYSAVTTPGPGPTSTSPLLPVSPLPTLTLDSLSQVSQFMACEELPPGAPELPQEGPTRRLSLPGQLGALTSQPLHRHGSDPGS
UniProt P01375, whole entry, looked up: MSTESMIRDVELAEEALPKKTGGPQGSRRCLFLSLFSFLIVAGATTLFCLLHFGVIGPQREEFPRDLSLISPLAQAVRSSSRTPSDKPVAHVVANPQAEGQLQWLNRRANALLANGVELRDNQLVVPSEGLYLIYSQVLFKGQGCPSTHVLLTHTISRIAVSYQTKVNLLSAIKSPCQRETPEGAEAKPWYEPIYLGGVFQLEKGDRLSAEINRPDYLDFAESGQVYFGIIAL
UniProt Q07869: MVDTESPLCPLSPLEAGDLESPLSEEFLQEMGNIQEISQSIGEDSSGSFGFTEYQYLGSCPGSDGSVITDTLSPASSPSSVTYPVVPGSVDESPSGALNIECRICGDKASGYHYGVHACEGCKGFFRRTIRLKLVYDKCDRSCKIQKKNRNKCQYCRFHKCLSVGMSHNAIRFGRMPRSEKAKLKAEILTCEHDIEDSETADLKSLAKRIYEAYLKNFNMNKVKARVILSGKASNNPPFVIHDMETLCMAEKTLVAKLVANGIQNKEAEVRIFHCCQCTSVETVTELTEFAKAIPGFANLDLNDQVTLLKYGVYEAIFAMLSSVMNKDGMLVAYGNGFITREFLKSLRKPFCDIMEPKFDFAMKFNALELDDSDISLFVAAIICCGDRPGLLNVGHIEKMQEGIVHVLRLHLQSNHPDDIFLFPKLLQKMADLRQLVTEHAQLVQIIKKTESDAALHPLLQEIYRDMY
UniProt P51449: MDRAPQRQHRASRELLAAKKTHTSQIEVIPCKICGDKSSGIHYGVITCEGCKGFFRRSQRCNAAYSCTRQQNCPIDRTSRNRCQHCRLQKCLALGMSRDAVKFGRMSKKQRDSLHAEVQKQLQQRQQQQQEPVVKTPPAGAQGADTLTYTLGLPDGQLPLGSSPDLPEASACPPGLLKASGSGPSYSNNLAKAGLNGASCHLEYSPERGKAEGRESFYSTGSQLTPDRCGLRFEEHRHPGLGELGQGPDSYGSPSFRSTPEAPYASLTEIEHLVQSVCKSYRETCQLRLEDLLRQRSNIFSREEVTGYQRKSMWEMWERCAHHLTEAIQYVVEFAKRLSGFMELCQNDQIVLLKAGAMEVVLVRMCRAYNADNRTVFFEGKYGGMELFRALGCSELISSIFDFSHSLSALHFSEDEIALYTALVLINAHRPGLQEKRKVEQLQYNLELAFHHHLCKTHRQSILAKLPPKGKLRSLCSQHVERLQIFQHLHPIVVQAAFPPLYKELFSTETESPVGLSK
UniProt Q9R1A7: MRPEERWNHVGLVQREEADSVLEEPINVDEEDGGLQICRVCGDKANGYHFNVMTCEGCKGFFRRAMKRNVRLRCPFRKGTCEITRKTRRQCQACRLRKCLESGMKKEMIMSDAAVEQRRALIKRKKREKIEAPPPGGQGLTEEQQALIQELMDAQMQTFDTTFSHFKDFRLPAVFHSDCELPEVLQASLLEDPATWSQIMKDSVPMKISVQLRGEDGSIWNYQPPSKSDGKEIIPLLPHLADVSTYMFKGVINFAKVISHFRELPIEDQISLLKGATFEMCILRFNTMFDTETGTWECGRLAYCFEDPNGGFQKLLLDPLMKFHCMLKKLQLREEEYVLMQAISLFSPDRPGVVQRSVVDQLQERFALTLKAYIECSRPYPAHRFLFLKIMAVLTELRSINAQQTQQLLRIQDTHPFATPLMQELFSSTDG

Assay [1] in a line: Cell Viability - LYMP2-005 (AID 967).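 Note: potency is the fitted concentration of half-maximal effect; cells exposed to compound for 24 h at 37 °C.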 Summed up:
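Acute cytotoxicity is scored as a concentration-dependent drop in intracellular ATP in human lymphoblastoid LYMP2-005 cells after 24 h compound treatment. ATP is quantified by luciferase luminescence, and AC50 is derived by Hill-equation modelling.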

Assay [2] in a line: Cell Viability - LYMP1-002 - Assay at 24 hr (AID 993). Note: % is set by controls: 0 for no effect and ±100 for the full control effect. The settings on record: LYMP1-002 lymphoblastoid cells viability; at 92.2 µM (top of the series). An outline of the steps: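 Human lymphoblastoid LYMP1-002 cells (2500/well) treated 24 h at 37 °C; viability as intracellular ATP by CellTiter-Glo luminescence. Tetraoctylammonium bromide as positive control; AC50 from Hill-equation fits of qHTS concentration-response.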

Assay [3] is described as follows: qHTS Assay for Identification of Small Molecule Inducers of Hypoxia Response (AID 2120; active = well fitted curve in the direction sought with a large enough effect in the signal ratio, with a control signal flat, not every such curve was filed as active; the % refers to the signal ratio; note: 0% is about no effect). Particulars: hypoxia response reporter cells, beta-lactamase ratio readout; at 104 µM (top of the series). An outline of the steps:
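HRE-bla ME-180 cells in Opti-MEM with 0.5% dialyzed FBS, pre-plated 4-5 h, then compound titration for 17 h at 37 degrees Celsius. CCF4 loaded 2.5 h at room temperature; 460/530 nm ratio gave %Activity and AC50 for induction.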
For orientation: qHTS replaces the single test concentration by a dilution series.

In assay [4] the target is Glucocorticoid receptor (Homo sapiens) (UniProt P04150). As to the kind of experiment: qHTS assay for small molecule agonists of glucocorticoid receptor signaling (AID 588532; active = well fitted curve in the direction sought with a large enough effect in the signal ratio, with a control signal flat; the % refers to the signal ratio;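 note: 100% = dexamethasone at 0.1 µM and 0% = DMSO only wells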). The settings on record: HeLa MMTV-bla, beta-lactamase ratio, agonist, 18 h; stronger effect = higher value.
The target in assay [5] is Vitamin D3 receptor (Homo sapiens) (UniProt P11473). Briefly: qHTS assay for small molecule antagonists of vitamin D receptor signaling (AID 588541; calls by dose curve;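 note: receptor activated by calcitriol during compound treatment; % is set by controls: 0 for no effect and ±100 for the full control effect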). Particulars: HEK293T VDR-UAS-bla, beta-lactamase ratio, antagonist mode; at 76.7 µM (top of the series). Summed up:
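Antagonist-mode beta-lactamase reporter assay: HEK293T VDR-UAS-bla cells were exposed to titrated compound alongside 1-alpha,25-dihydroxyvitamin D3 at 3 nM final for 16 h. Values were normalized to the 50 nM agonist control and DMSO basal, with IC50 and efficacy from Hill equation fits.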

Assay [6] shares this target. Briefly: qHTS assay for small molecule agonists of vitamin D receptor signaling (AID 588543; calls by dose curve;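 note: 0% = DMSO basal and 100% = reference agonist control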). The settings on record: HEK293T VDR-UAS-bla, beta-lactamase ratio, 16 h; at 76.8 µM (top of the series). Summed up: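 Reporter cells (HEK293T, VDR-UAS-bla) were seeded in medium with 2% charcoal-stripped serum and incubated 5 h, then compounds in concentration series were added for 16 h at 37 °C. Stimulation was scaled between DMSO basal and 50 nM 1α,25-dihydroxyvitamin D3.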

The target of assay [7] is Retinoic acid receptor RXR-alpha (Homo sapiens) (UniProt P19793). As to the kind of experiment: qHTS assay for small molecule agonists of retinoid X receptor alpha signaling (AID 588544; calls by dose curve;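 note: 0% = DMSO basal wells and 100% = reference agonist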). Particulars: HEK293T RXRa-UAS-bla, beta-lactamase reporter, 18 h; at 76.7 µM (top of the series).
The target is the same in assay [8]. As to the kind of experiment: qHTS assay for small molecule antagonists of retinoid X receptor alpha signaling (AID 588546; active = well fitted inhibition curve with a large enough effect in the signal ratio, with a control signal flat, not every such curve was filed as active; the % refers to the signal ratio;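 note: cells stimulated with 9-cis-retinoic acid as agonist; % is set by controls: 0 for no effect and ±100 for the full control effect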). Particulars: HEK293T RXRa-UAS-bla, beta-lactamase ratio, antagonist mode. Summed up: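 Beta-lactamase reporter inhibition, read as CCF4 fluorescence ratio (ex 405, em 460/530 nm) after 2 h at RT. HEK293T UAS-bla cells, 2500/well, were stimulated with 9-cis-RA at 500 or 100 nM final alongside test compound for 18 h at 37 C.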

In assay [9] the target is Voltage-gated inwardly rectifying potassium channel KCNH2 (Homo sapiens) (UniProt Q12809). As to the kind of experiment: qHTS Assay for Small Molecule Inhibitors of the Human hERG Channel Activity (AID 588834).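 Note: U2OS cells transduced with hERG by BacMam; top concentration of the series differs between compounds; % is set by controls: 0 for no effect and ±100 for the full control effect; lower thallium flux fluorescence means stronger hERG block; nearly all actives have a fitted effect of over 50% in size.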 Particulars: U2OS BacMam hERG, FluxOR thallium flux fluorescence; at 46.1 µM (top of the series) unless noted.
Assay [10] can be described thus: qHTS assay for small molecule activators of the p53 signaling pathway (AID 651743; active = well fitted activation curve with a large enough effect in the signal ratio, not every such curve was filed as active; the % refers to the signal ratio; note: potency is the fitted concentration of half-maximal effect). The settings on record: HCT-116 p53RE-bla, beta-lactamase FRET ratio, 16 h; activation: stronger effect = higher value.
Assay [11] deals with Tumor necrosis factor (Homo sapiens) (UniProt P01375). Briefly: qHTS assay to identify small molecules that stimulate Tumor Necrosis Factor-alpha (TNF-alpha) secretion (AID 651757; active = well fitted curve in the direction sought with a large enough effect in the signal ratio; the % refers to the signal ratio; note: 0% is about no effect). The settings on record: Human cells, HTRF 665/615 ratio; at 92.2 µM (top of the series). Summed up: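 THP-1 cells (3000/well) exposed to compounds 17 hrs at 37 C. Secreted TNF-alpha detected by HTRF with cryptate- and XL665-labeled anti-TNF-alpha antibodies after 3 hr at room temperature.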

The nature of assay [12]: qHTS assay for environmental chemicals that activate the Aryl hydrocarbon Receptor (AhR) signaling pathway (AID 651777). Note: % of control where 0% means no effect; nearly all actives have a fitted effect of over 15% in size. Particulars: 1A2-DRE human hepatoma cells, luciferase, 24 h; stronger effect = higher value. An outline of the steps:
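Following a 24 hr incubation with test chemicals at 37 C and 5% CO2, 1A2-DRE human hepatoma cells received One-Glo reagent; after 30 min at room temperature, luciferase output reflected CYP1A2 induction via AhR.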

For assay [13], the target named is Peroxisome proliferator-activated receptor alpha (Homo sapiens) (UniProt Q07869). As to the kind of experiment: qHTS assay for small molecule agonists of the peroxisome proliferator-activated receptor alpha (PPARalpha) signaling pathway (AID 651778). Note: % of control where 0% means no effect. Particulars: PathHunter PPARalpha complementation, chemiluminescence, 6 h; stronger effect = higher value.
In assay [14] the target is Nuclear receptor ROR-gamma (Homo sapiens) (UniProt P51449). Briefly: qHTS assay for small molecule antagonists of the retinoid-related orphan receptor gamma (ROR-gamma) signaling pathway (AID 651802). Note: potency is the fitted concentration of half-maximal effect; nearly all actives have a fitted effect of over 60% in size.
Assay [15] can be described thus: qHTS assay for small molecule agonists of the antioxidant response element (ARE) signaling pathway measured by Nrf2-dependant transcriptional activity (AID 720636; active = well fitted curve in the direction sought with a large enough effect in the repeat runs; an effect the other way counts as inactive or inconclusive;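 note: HepG2 cells with an ARE-driven luciferase reporter; % of control where 0% means no effect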). The settings on record: ARE-luc HepG2, Nrf2 luciferase reporter, 16 h; at 92.4 µM (top of the series).
Assay [16] in a line: qHTS assay for small molecule agonists of the antioxidant response element (ARE) signaling pathway measured by Nrf2-dependant transcriptional activity - cell viability counter screen (AID 720653; active = well fitted curve in the direction sought with a large enough effect in the repeat runs; an effect the other way counts as inactive or inconclusive; note: % is set by controls: 0 for no effect and ±100 for the full control effect). Particulars: ARE-bla HepG2 viability, CellTiter-Glo ATP luminescence, 16 h; stronger effect = lower value. Summed up: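 Cytotoxicity counter screen: intracellular ATP quantified by CellTiter-Glo luminescence in the same ARE-bla HepG2 plates, after 16 h compound exposure and a 2 h beta-lactamase substrate step.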

In assay [17] the target is Nuclear receptor subfamily 1 group I member 2 (Rattus norvegicus) (UniProt Q9R1A7). As to the kind of experiment: qHTS assay for small molecule activators of the rat pregnane X receptor (rPXR) signaling pathway (AID 651751; call rule not given here; note: 0% is about no effect). Particulars: rPXR reporter cells, luciferase (One-Glo), 24 h.
A short description of assay [18]: qHTS assay for small molecule activators of the human pregnane X receptor (PXR) signaling pathway (AID 720659; call rule not given here; note: 0% is about no effect). Particulars: DPX-2 HepG2 CYP3A4-luciferase, 24 h; at 92.3 µM (top of the series).

SMILES strings stand for the structures. Only a part is listed here, and it is no random draw. Results filed as inconclusive are left out. For part of these data: Potency and affinity values are given separately. Calls of active or inactive are those of the source. Unless noted, calls come from the whole dose curve; as a rule, active = well fitted curve in the direction sought with a large enough effect; inconclusive = small, poorly fitted or top-dose-only effect, or another doubt; inactive = no such curve, though single readings can be large; an effect the other way counts as inactive or inconclusive.

Regarding `CN(N=O)C(=N)N[N+](=O)[O-]`, the figures for the Potency in assay [1], in assay [10] and in assay [14] were active: 39.8 µM, active: 14.1 µM and active: 37.6 µM, respectively. Moreover, in assay [2], the activity change, negative = cytotoxicity is inactive: -28.5%. In addition, the activation in [3] was inactive: 4.53%; in assay [4] it was inactive: -19.5%; in assay [6] it was inactive: 4.69%; in [7], inactive: -13.3%; in assay [12], inactive: 0.292%; in assay [15], inactive: -1.02%. The activation in assay [18] was inactive: -11.7%. The figures for the activity change, negative = inhibition in assay [5] and in [9] were inactive: -3.95% and inactive: 13.6% [at 92.2 µM], respectively. For the same compound, the max response was inactive: 15.4% in assay [8], inactive: -3.85% in [13], inactive: -23.9% in assay [16] and inactive: 0.388% in assay [17]. Moreover, the activation (TNF-alpha secretion) in assay [11] is inactive: 0.0265%.
